Values quoted from earlier work, collected in patent US6423677B1, “Cleaner/degreaser concentrate compositions” (Buckeye International, Inc., priority 1995, dated 2002).

Conditions: in water

CCCCOP(=O)(OCCCC)OCCCC
aqueous ambient temperature solubility: 0.6 wt. %
